## scFv variants of Ab-14 (light chain) against a SARS-CoV-2 spike peptide

The target is the same throughout: PDVDLGDISGINAS, from the HR2 region of SARS-CoV-2 spike.

Each scFv is VH, the linker GGGGSGGGGSGGGGS, VL, as in the parent Ab-14, and differs from it in the CDRs of the light chain only.
VH: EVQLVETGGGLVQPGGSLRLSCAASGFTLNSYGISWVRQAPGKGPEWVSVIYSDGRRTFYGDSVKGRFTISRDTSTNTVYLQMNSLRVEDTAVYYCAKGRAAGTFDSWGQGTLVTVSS
VL: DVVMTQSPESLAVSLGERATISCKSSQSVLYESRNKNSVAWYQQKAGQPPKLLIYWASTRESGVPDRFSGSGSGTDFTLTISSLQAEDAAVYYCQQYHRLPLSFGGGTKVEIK

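The parent was found by panning a naive human phage display library on the peptide. These sequences belong to a second round, designed from the earlier measurements on random variants of the parent. Group labels follow the data file (En: ensemble of fine-tuned language models; GP: Gaussian process model; HC: hill climbing; Gen: genetic algorithm; Gibbs: Gibbs sampling; a sequence that several methods proposed may carry one label only). Affinity was read by AlphaSeq, a pooled yeast mating assay with surface-displayed partners. After mating in shaken culture at 30 °C for 16 h, diploids were selected and their barcode pairs sequenced. Scores were corrected for input abundance and mapped to Kd with protein pairs of known affinity run in the same pool. The assay was run in six technical replicates.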

Each variant is given by its three light chain CDRs, as the data file delimits them; those of the parent are KSSQSVLYESRNKNSVA, WASTRES, QQYHRLPLS.
Variants here have more than six changes.
Values are apparent Kd, the geometric mean of the replicates that gave a signal; lower means stronger binding.
An entry "no signal" has no value in the source: the pair was not observed among the diploids in any replicate. This suggests poor binding but is not conclusive.

For GFSQDFYGERNMANQVA | DGNQLAN | QQYARLPLV [En_Gibbs], the assay gave 2.6 nM (6 of 6 replicates; controls 1 of 18). With KLSQDDWYESRNCNNVA | QASTREQ | QQYHRLPLS [GP_Gibbs] the result was 3.7 nM (6 of 6 replicates; controls 0 of 18). The variant HISQMVMYGSCNKNNVA | QVSTREE | QQYHHLPLS [En_HC] showed 4.5 nM (6 of 6 replicates; controls 2 of 18). For FMDFQDLMWQYDANNIA | GATLSVE | QQYGRLPLT [En_Gibbs], the assay gave 62 nM (6 of 6 replicates; controls 0 of 18). With KLMQSTPYESRNANNVA | YASTRES | QQYHRLPLS [GP_Gibbs] the result was 1.4 nM (6 of 6 replicates; controls 0 of 18). The variant SIMQVGGYESNAHNSIA | DLRTRES | QQYHRLPLS [En_HC] gave 1.5 nM (6 of 6 replicates; controls 0 of 18). With KLQQSVEYESRNKNNVA | EGSQREV | QQYHRLPLS [GP_Gibbs] the result was 160 pM (6 of 6 replicates; controls 2 of 18).

The variant KLSQADWYESRNKNSVA | EASLREQ | QQYHRLPLS [GP_Gibbs] gave 970 pM (6 of 6 replicates; controls 0 of 18). The variant KLVQSWLYLSRNHNAVA | HASQRCS | QDYHRLPLS [GP_Gibbs] showed 8.3 nM (6 of 6 replicates; controls 0 of 18). The variant SLTRFNLQNQGNSNNIA | DTNQVQE | QQYFRLPFA [En_Gibbs] gave 1.3 nM (6 of 6 replicates; controls 0 of 18). For SLDSAVGYDLQNKKNIA | EETRVDR | QQYAHLPLM [En_Gibbs], the assay gave 2.0 nM (6 of 6 replicates; controls 0 of 18). The variant KVSQSEWYESRMKNSVA | NASYREQ | QQYHRLPLQ [GP_Gibbs] showed 5.1 nM (6 of 6 replicates; controls 1 of 18). The variant MISQLYNMGQFAINSVA | QASTRNE | QQYDRLPLT [En_Gen] gave 6.7 nM (6 of 6 replicates; controls 0 of 18). With KLSQQWLMESRNKNSVA | NASLRLS | QCYHRLPLS [GP_Gibbs] the result was 63 nM (6 of 6 replicates; controls 1 of 18).

With KISQMVRVGSTKQNSIA | EEATRAD | QQYHRLPLS [En_Gen] the result was 4.8 nM (6 of 6 replicates; controls 4 of 18). For MLHEVMGLVSHKQSSIA | DNSTRED | QQYDRLPLS [En_Gen], the assay gave 490 nM (4 of 6 replicates; controls 1 of 18). The variant VLGTSTLEESRNKNSVA | EMSLRES | QSYNRLPLS [En_HC] showed 3.9 nM (6 of 6 replicates; controls 0 of 18). The variant KISQNMGETQRQKNSVA | EVSTVPS | QQYWRLPLS [En_HC] showed 3.6 nM (6 of 6 replicates; controls 0 of 18). The variant MISDLTYYGLRNVNNVA | DLSTRGN | QQYDRLPLS [En_HC] gave 21 nM (6 of 6 replicates; controls 2 of 18). The variant QTTAFYEHGYDQNQAMA | DVTMRDQ | QQYERLPLS [En_Gibbs] showed 1.8 nM (6 of 6 replicates; controls 0 of 18). The variant KISSMVKVGMTHQNSIA | EEQTRAK | QQYHRLPLS [En_Gen] showed 6.9 nM (6 of 6 replicates; controls 1 of 18).

For ILEENSDDITEQQNSIA | ETQMVYS | QQYHRLPLA [En_Gibbs], the assay gave 97 nM (6 of 6 replicates; controls 0 of 18). The variant KLQAQDEYWSRNKNSVA | QASTREQ | QQYHRLPLS [GP_Gibbs] gave 290 pM (6 of 6 replicates; controls 0 of 18). The variant KLVNFMNRGTHHTSNIA | DAQNRND | QQYARLPLA [En_Gen] showed 11 nM (6 of 6 replicates; controls 1 of 18). With IVSQLMLWGLHAKNSIA | EAEIRTN | QQYDRLPLI [En_Gen] the result was no signal (0 of 6 replicates; controls 0 of 18). For SISGFMKTLSAHKNNVA | DMTCRED | QQYDHLPLS [En_Gen], the assay gave 1.2 nM (6 of 6 replicates; controls 2 of 18). The variant KQPVLKLYGSRNKNSVA | EASTRES | QQYHRLPLS [GP_Gibbs] gave 3.8 nM (6 of 6 replicates; controls 0 of 18). With KVSEFMKGLMARTDSIA | DNVTRNK | QQYDRLPLS [En_Gen] the result was 170 nM (6 of 6 replicates; controls 0 of 18).

With KIASSMNLTSHHINSVA | QSTTREE | QQYNHLPLS [En_HC] the result was 20 nM (6 of 6 replicates; controls 2 of 18). For TISQVMNTLTRQGNNVA | DLQNRED | QQYFRLPLS [En_Gen], the assay gave 21 nM (3 of 6 replicates; controls 1 of 18). For KFMGSDEYQMQEQHNVA | QTEQKCK | QQYFRLPLT [En_Gibbs], the assay gave 7.2 nM (6 of 6 replicates; controls 0 of 18). The variant KLEQGVDMESRNKNSVA | NASMRES | QQYHRLPLS [GP_Gibbs] gave 1.3 nM (6 of 6 replicates; controls 2 of 18). With NMQLQVRNGENNKYNIA | AEMKRVY | QQYQRLPLS [En_Gibbs] the result was no signal (0 of 6 replicates; controls 0 of 18). For HMSMLTMSGMKQRNSVA | QMTMREN | QQYDRLPLA [En_Gen], the assay gave 12 nM (6 of 6 replicates; controls 1 of 18). With NISQMIFMETKNVNNVA | QTTTREE | QDYHRLPLS [En_HC] the result was 2.6 nM (6 of 6 replicates; controls 0 of 18).

The variant RIQQQMAGFEREAANIA | STAVRLW | QQYARLPFI [En_Gibbs] showed 2.8 nM (6 of 6 replicates; controls 0 of 18). The variant KSSGSVLGEDWNSNSVA | NASQRES | QQYHRLPLS [GP_Gibbs] showed 3.0 nM (6 of 6 replicates; controls 0 of 18). The variant KQSISGPYEDRNFNSVA | HASTRIS | QQYHRLPLS [GP_Gibbs] showed 4.2 nM (6 of 6 replicates; controls 2 of 18).

From the list, the first 2 with no signal in any replicate:

{"CDR-L1": "IVSQLMLWGLHAKNSIA", "CDR-L2": "EAEIRTN", "CDR-L3": "QQYDRLPLI", "group": "En_Gen", "apparent Kd": "no signal", "detected": "0/6", "control signals": "0/18"}
{"CDR-L1": "NMQLQVRNGENNKYNIA", "CDR-L2": "AEMKRVY", "CDR-L3": "QQYQRLPLS", "group": "En_Gibbs", "apparent Kd": "no signal", "detected": "0/6", "control signals": "0/18"}

Three control strains display no target. For all light chain designs, 4% of the pairings with them gave a signal, with a median of 430 nM and one signal in twenty below 38 nM, so weak values seen in few replicates may be background. For each scFv, signals with the empty controls are counted beside the result.
A sequence measured in both rounds can read differently, since the two assays cover different ranges.
In the paper, a design with two or fewer of six values counts as a poor binder.

Reference: Li et al. 2023, doi:10.1038/s41467-023-39022-2. File: FLAb, binding data.